## Apparent affinities of Ab-95 variants for a coronavirus HR2 peptide

Source: Engelhart et al. 2022 (doi:10.1038/s41597-022-01779-4), MIT Lincoln Laboratory and A-Alpha Bio; data file from the FLAb repository.

The target is the same throughout: PDVDLGDISGINAS, from the HR2 region of SARS-CoV-2 spike.

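Variants in AAYL52 differ from the parent at up to three CDR positions; double and triple changes were sampled at random. The scFvs were displayed on barcoded MATa yeast, the peptide on MATalpha yeast. After mating in shaken culture at 30 °C for 16 h, diploids were selected and their barcode pairs sequenced. Each replicate has its own calibration line, from reference interactions of the BCL2 family. There are three technical replicates.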

Each scFv is VH, a (GGGGS)3 linker, VL, as in the parent Ab-95, and differs from it in the CDRs of the light chain only.
VH: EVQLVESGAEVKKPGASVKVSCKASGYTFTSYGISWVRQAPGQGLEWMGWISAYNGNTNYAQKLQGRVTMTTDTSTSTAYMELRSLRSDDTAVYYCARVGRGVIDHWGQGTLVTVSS
VL: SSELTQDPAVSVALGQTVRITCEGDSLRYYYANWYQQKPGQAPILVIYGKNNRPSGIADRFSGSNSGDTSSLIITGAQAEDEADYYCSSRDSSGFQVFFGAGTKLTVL

The parent's light chain CDRs are EGDSLRYYYAN, GKNNRPS, SSRDSSGFQVF; each variant's own CDRs replace them letter for letter. The read-out is the apparent dissociation constant on a log10 scale (nM): the lower, the stronger. A mean of the replicates is given; it leaves out those without a signal. Where no diploid with the target was found in that replicate, the entry reads "n.d.": below detection, most likely a poor binder, though not proof of it. In this assay the parent's reference entry averaged 2.31; its copy inside this library read 2.25. As a blank, each scFv also met three strains without target: over library AAYL52, 28% of these pairings were detected, typically at 3.91 and seldom below 2.90. For each scFv, signals with the empty controls are counted beside the result, with their mean in brackets.

{"CDR-L1": "EGCSLRYYYAN", "CDR-L2": "AKFNRPS", "CDR-L3": "SSRDSSGFQVF", "log10 Kd, replicates": "3.55 / 4.50 / n.d.", "mean log10 Kd (nM)": "4.03", "control signals": "4 of 9 (4.01)"}
{"CDR-L1": "EGDSLRYYYAI", "CDR-L2": "GGNNRPS", "CDR-L3": "SSRDSSWFQVF", "log10 Kd, replicates": "n.d. / 4.20 / n.d.", "mean log10 Kd (nM)": "4.20", "control signals": "4 of 9 (3.94)"}
{"CDR-L1": "EGDSLRYYYYN", "CDR-L2": "GKNSRPS", "CDR-L3": "SSRGSSGFQVF", "log10 Kd, replicates": "5.00 / 3.56 / n.d.", "mean log10 Kd (nM)": "4.28", "control signals": "2 of 9 (3.64)"}
{"CDR-L1": "EGHSLRYYYAN", "CDR-L2": "GKNNRPS", "CDR-L3": "SSRDSSGFSVQ", "log10 Kd, replicates": "2.88 / 2.69 / 2.26", "mean log10 Kd (nM)": "2.61", "control signals": "5 of 9 (4.59)"}
{"CDR-L1": "EGDSLRYYYAN", "CDR-L2": "GKNNRPS", "CDR-L3": "SSRDSMGFQSF", "log10 Kd, replicates": "2.72 / n.d. / 2.62", "mean log10 Kd (nM)": "2.67", "control signals": "4 of 9 (4.12)"}
{"CDR-L1": "EGYSLRYYYAN", "CDR-L2": "GKNNRPS", "CDR-L3": "SSLDSSGFWVF", "log10 Kd, replicates": "5.09 / n.d. / n.d.", "mean log10 Kd (nM)": "5.09", "control signals": "1 of 9 (3.78)"}
{"CDR-L1": "EGNSLRSYYAN", "CDR-L2": "GKENRPS", "CDR-L3": "SSRDSSGFQVF", "log10 Kd, replicates": "2.21 / 2.43 / 1.54", "mean log10 Kd (nM)": "2.06", "control signals": "3 of 9 (3.80)"}
{"CDR-L1": "EGDSLRYYYAN", "CDR-L2": "GTNNRMS", "CDR-L3": "SPRDSSGFQVF", "log10 Kd, replicates": "n.d. / 5.52 / n.d.", "mean log10 Kd (nM)": "5.52", "control signals": "3 of 9 (3.42)"}
{"CDR-L1": "EGDSLRYYYAN", "CDR-L2": "GKLYRPS", "CDR-L3": "SSRDQSGFQVF", "log10 Kd, replicates": "3.24 / n.d. / 4.06", "mean log10 Kd (nM)": "3.65", "control signals": "7 of 9 (4.47)"}
{"CDR-L1": "EMDSLRYYYAN", "CDR-L2": "GKNNRPS", "CDR-L3": "SSRDSFGSQVF", "log10 Kd, replicates": "3.69 / 4.42 / 4.22", "mean log10 Kd (nM)": "4.11", "control signals": "2 of 9 (3.85)"}
{"CDR-L1": "EGDSLRYYYAN", "CDR-L2": "GKNNRPS", "CDR-L3": "SPRDASGFQVT", "log10 Kd, replicates": "2.99 / 3.05 / 2.71", "mean log10 Kd (nM)": "2.92", "control signals": "1 of 9 (3.63)"}
{"CDR-L1": "EGDSLRYYYAN", "CDR-L2": "GKNNRPS", "CDR-L3": "SSCDSVGFQVG", "log10 Kd, replicates": "5.09 / 3.66 / n.d.", "mean log10 Kd (nM)": "4.38", "control signals": "3 of 9 (4.29)"}
{"CDR-L1": "EGDSLRYYYQN", "CDR-L2": "GKNNRPS", "CDR-L3": "SSRSSSHFQVF", "log10 Kd, replicates": "n.d. / n.d. / n.d.", "mean log10 Kd (nM)": "n.d.", "control signals": "1 of 9 (2.75)"}
{"CDR-L1": "EGASLRYYYAQ", "CDR-L2": "GKANRPS", "CDR-L3": "SSRDSSGFQVF", "log10 Kd, replicates": "3.37 / n.d. / 3.91", "mean log10 Kd (nM)": "3.64", "control signals": "2 of 9 (3.92)"}
{"CDR-L1": "EGASLRYYYAN", "CDR-L2": "GYNNRPS", "CDR-L3": "SSHDSSGFQVF", "log10 Kd, replicates": "n.d. / n.d. / n.d.", "mean log10 Kd (nM)": "n.d.", "control signals": "1 of 9 (3.94)"}
{"CDR-L1": "EGDSLRYYYAN", "CDR-L2": "GMNNRSS", "CDR-L3": "SSRDSSGVQVF", "log10 Kd, replicates": "3.70 / 4.62 / 3.27", "mean log10 Kd (nM)": "3.87", "control signals": "7 of 9 (4.77)"}
{"CDR-L1": "EGDSLRYYYWN", "CDR-L2": "QANNRPS", "CDR-L3": "SSRDSSGFQVF", "log10 Kd, replicates": "3.78 / 3.53 / 3.26", "mean log10 Kd (nM)": "3.53", "control signals": "3 of 9 (4.26)"}
{"CDR-L1": "EGDSLRYYYAN", "CDR-L2": "GKNNRPS", "CDR-L3": "SKWDLSGFQVF", "log10 Kd, replicates": "2.21 / 2.66 / 1.88", "mean log10 Kd (nM)": "2.25", "control signals": "1 of 9 (3.67)"}
{"CDR-L1": "EGDSLRYYYTN", "CDR-L2": "GKNNMPS", "CDR-L3": "SSRDSSGEQVF", "log10 Kd, replicates": "2.96 / 3.34 / 2.70", "mean log10 Kd (nM)": "3.00", "control signals": "2 of 9 (4.09)"}
{"CDR-L1": "EGDSLRYYYAN", "CDR-L2": "GKNNRPS", "CDR-L3": "SSHDSSLFRVF", "log10 Kd, replicates": "2.43 / 2.24 / 2.61", "mean log10 Kd (nM)": "2.42", "control signals": "2 of 9 (4.16)"}
{"CDR-L1": "EGDSLRYDYAN", "CDR-L2": "GKNNRPS", "CDR-L3": "SSRDSSGYQDF", "log10 Kd, replicates": "n.d. / n.d. / n.d.", "mean log10 Kd (nM)": "n.d.", "control signals": "1 of 9 (3.99)"}
{"CDR-L1": "EGDVLRYYYAN", "CDR-L2": "GKNNRPS", "CDR-L3": "SSRDSSQQQVF", "log10 Kd, replicates": "n.d. / 4.78 / n.d.", "mean log10 Kd (nM)": "4.78", "control signals": "2 of 9 (4.42)"}

The first 3 variants above that were never detected:

CDR-L1	CDR-L2	CDR-L3	log10 Kd, replicates	mean log10 Kd (nM)	control signals
EGDSLRYYYQN	GKNNRPS	SSRSSSHFQVF	n.d. / n.d. / n.d.	n.d.	1 of 9 (2.75)
EGASLRYYYAN	GYNNRPS	SSHDSSGFQVF	n.d. / n.d. / n.d.	n.d.	1 of 9 (3.94)
EGDSLRYDYAN	GKNNRPS	SSRDSSGYQDF	n.d. / n.d. / n.d.	n.d.	1 of 9 (3.99)